The chains behind the UniProt entries cited, without tags or fusion partners. Where a name states a change or a piece, a line headed by the entry shows the natural chain unless it says otherwise.
UniProt P41146: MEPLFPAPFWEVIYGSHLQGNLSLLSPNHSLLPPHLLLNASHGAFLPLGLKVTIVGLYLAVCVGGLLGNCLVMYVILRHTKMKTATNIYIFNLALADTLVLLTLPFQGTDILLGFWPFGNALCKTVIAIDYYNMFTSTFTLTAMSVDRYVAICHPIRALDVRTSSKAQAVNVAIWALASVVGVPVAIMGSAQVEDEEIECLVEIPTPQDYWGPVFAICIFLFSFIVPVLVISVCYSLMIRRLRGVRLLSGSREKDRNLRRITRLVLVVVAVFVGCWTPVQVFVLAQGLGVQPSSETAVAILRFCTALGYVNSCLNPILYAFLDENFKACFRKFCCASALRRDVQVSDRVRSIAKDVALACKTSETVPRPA

According to patent US7414062B2, “Triazaspiro compounds useful for treating or preventing pain” (dated 2008):

Molecular target: ORL-1 receptor (Homo sapiens, UniProt P41146)
Assay: [35S]GTPgS functional assay, ORL-1 receptor membranes
Settings: read-out: ORL-1 GTP EC50

With `CCOC(=O)CN1CN(c2ccccc2)C2(CCN(CCC(c3ccccc3)c3ccccc3)CC2)C1=O` the EC50 was 71 nM.
